Here are results for two molecules from PMC10443802, “Targeting a xenobiotic transporter to ameliorate vincristine-induced sensory neuropathy” (JCI Insight, 2023).

For series [1], the target named is T1, hNTCP (Homo sapiens, UniProt Q14973).
T1 sequence (Q14973 1-349): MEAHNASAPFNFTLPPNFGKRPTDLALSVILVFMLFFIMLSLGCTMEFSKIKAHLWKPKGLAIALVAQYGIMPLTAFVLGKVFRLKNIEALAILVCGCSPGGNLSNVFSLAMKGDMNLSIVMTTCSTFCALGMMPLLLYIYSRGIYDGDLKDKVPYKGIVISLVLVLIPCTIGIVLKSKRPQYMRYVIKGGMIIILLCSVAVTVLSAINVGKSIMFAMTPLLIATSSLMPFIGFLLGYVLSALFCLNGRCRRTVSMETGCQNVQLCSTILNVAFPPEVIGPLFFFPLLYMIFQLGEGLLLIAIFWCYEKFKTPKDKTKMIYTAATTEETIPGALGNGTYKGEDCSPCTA
Briefly: Vincristine uptake screen, HeLa cells overexpressing hNTCP. It is filed as in vitro ADME.

For series [2], the system named is mice. The conditions noted are these: OATP1B2(-/-) mice + Nilotinib.

Several values for one entry are separate records, joined by “and”; a condition that tells them apart may be missing. Identical values can stand only once. Like-named read-outs stand apart in the source and are kept apart here.

As for `CC[C@]1(O)C[C@H]2CN(CCc3c([nH]c4ccccc34)[C@@](C(=O)OC)(c3cc4c(cc3OC)N(C=O)[C@H]3[C@@](O)(C(=O)OC)[C@H](OC(C)=O)[C@]5(CC)C=CCN6CC[C@]43[C@@H]65)C2)C1` [Vincristine, vincristine], the “Vincristine uptake (% of vector control)” value in series [1] was 111.00 % of vector control and 83.00 % of vector control and 98.00 % of vector control and 116.00 % of vector control and 118.00 % of vector control and 141.00 % of vector control and 97.00 % of vector control.
Consider `Cc1cn(-c2cc(NC(=O)c3ccc(C)c(Nc4nccc(-c5cccnc5)n4)c3)cc(C(F)(F)F)c2)cn1` [Nilotinib, nilotinib], for which the “Paw withdrawal threshold (%Δ from baseline)” value in series [2] (Day 3) and in series [2] (Day 6) was 92.8% throughout.
